Test results taken from article PMC2861356 (Clinical cancer research : an official journal of the …, 2009).

Test: Nilotinib serum pharmacokinetics at steady-state
Details: for Nilotinib AUC0-t, mean±SD / Nilotinib Cavg, mean±SD / Nilotinib Cmax, mean±SD / Nilotinib tmax, median (range): steady-state Day 8 or 15; for Nilotinib CL/F, mean±SD: steady-state
[1] = Cohort 2 n=6: nilotinib 200 mg qd, imatinib 400 mg bid
[2] = Cohort 3 n=6: nilotinib 400 mg qd, imatinib 400 mg bid
[3] = Cohort 4 n=5: nilotinib 400 mg bid, imatinib 400 mg bid
[4] = Cohort 5 n=12: nilotinib 400 mg bid, imatinib 400 mg qd

Q: Which results are given for `Cc1cn(-c2cc(NC(=O)c3ccc(C)c(Nc4nccc(-c5cccnc5)n4)c3)cc(C(F)(F)F)c2)cn1` [Nilotinib]?
A: Nilotinib AUC0-t, mean±SD [1]: 10474 ± 3491 ng·h/mL; Nilotinib Cavg, mean±SD [1]: 438 ± 150 ng/mL; Nilotinib CL/F, mean±SD (Cohort 2 n=6: nilotinib 200 mg qd, imatinib 400 mg bid, estimated as dose/AUC0-t): 21.5 ± 9.3 L/h; Nilotinib Cavg, mean±SD [2]: 863 ± 472 ng/mL; Nilotinib Cmax, mean±SD [2]: 1236 ± 705 ng/mL; Nilotinib tmax, median (range) [2]: 6.4 (1.9-23.8) h; Nilotinib CL/F, mean±SD (Cohort 3 n=6: nilotinib 400 mg qd, imatinib 400 mg bid, estimated as dose/AUC0-t): 25.6 ± 13.8 L/h; Nilotinib AUC0-t, mean±SD [3]: 18717 ± 8516 ng·h/mL; Nilotinib Cavg, mean±SD [3]: 1617 ± 610 ng/mL; Nilotinib Cmax, mean±SD [3]: 2160 ± 756 ng/mL; Nilotinib tmax, median (range) [3]: 2.1 (0-12.5) h; Nilotinib CL/F, mean±SD (Cohort 4 n=5: nilotinib 400 mg bid, imatinib 400 mg bid, estimated as dose/AUC0-t): 24.8 ± 10.0 L/h; Nilotinib CL/F, mean±SD (Cohort 5: nilotinib 400 mg bid, imatinib 400 mg qd, n=3, estimated as dose/AUCτ): 19.1 ± 6.1 L/h; Nilotinib AUC0-t, mean±SD [4]: 16760 ± 9450 ng·h/mL; Nilotinib Cavg, mean±SD [4]: 1642 ± 701 ng/mL; Nilotinib Cmax, mean±SD [4]: 2509 ± 1266 ng/mL; Nilotinib tmax, median (range) [4]: 0 (0-5.0) h
